For 1 compound, IC50 results are on record in patent US20220332695A1, “UREA DERIVATIVES AS CB1 ALLOSTERIC MODULATORS” (RTI INTERNATIONAL, priority 2019, published 2022).

The assay deals with hCB1R (Homo sapiens, UniProt P21554). Briefly: Intrinsic activity: basal [35S]GTPγS binding in the absence of CP55,940. As to conditions: read-out: inverse agonism IC50. (In general: GTPγS resists hydrolysis and so accumulates on activated G proteins.)

Regarding `O=C(Nc1ccc(Cl)cc1)Nc1cccc(-c2cccc(N3CCCC3)n2)c1` [Compound 2, reference compound], the IC50 came to 1470 nM.

Usually IC50 stands for the concentration that inhibits the measured activity by half.
